Data published in ChEMBL document CHEMBL6092206, “Discovery and Characterization of BAY-184: A New Potent and Selective Acylsulfonamide-Benzofuran In Vivo-Active KAT6AB Inhibitor” (J Med Chem, 2024).

Protein sequences, listed by entry. Tags and fused reporters are not part of them.
UniProt Q92794, whole entry: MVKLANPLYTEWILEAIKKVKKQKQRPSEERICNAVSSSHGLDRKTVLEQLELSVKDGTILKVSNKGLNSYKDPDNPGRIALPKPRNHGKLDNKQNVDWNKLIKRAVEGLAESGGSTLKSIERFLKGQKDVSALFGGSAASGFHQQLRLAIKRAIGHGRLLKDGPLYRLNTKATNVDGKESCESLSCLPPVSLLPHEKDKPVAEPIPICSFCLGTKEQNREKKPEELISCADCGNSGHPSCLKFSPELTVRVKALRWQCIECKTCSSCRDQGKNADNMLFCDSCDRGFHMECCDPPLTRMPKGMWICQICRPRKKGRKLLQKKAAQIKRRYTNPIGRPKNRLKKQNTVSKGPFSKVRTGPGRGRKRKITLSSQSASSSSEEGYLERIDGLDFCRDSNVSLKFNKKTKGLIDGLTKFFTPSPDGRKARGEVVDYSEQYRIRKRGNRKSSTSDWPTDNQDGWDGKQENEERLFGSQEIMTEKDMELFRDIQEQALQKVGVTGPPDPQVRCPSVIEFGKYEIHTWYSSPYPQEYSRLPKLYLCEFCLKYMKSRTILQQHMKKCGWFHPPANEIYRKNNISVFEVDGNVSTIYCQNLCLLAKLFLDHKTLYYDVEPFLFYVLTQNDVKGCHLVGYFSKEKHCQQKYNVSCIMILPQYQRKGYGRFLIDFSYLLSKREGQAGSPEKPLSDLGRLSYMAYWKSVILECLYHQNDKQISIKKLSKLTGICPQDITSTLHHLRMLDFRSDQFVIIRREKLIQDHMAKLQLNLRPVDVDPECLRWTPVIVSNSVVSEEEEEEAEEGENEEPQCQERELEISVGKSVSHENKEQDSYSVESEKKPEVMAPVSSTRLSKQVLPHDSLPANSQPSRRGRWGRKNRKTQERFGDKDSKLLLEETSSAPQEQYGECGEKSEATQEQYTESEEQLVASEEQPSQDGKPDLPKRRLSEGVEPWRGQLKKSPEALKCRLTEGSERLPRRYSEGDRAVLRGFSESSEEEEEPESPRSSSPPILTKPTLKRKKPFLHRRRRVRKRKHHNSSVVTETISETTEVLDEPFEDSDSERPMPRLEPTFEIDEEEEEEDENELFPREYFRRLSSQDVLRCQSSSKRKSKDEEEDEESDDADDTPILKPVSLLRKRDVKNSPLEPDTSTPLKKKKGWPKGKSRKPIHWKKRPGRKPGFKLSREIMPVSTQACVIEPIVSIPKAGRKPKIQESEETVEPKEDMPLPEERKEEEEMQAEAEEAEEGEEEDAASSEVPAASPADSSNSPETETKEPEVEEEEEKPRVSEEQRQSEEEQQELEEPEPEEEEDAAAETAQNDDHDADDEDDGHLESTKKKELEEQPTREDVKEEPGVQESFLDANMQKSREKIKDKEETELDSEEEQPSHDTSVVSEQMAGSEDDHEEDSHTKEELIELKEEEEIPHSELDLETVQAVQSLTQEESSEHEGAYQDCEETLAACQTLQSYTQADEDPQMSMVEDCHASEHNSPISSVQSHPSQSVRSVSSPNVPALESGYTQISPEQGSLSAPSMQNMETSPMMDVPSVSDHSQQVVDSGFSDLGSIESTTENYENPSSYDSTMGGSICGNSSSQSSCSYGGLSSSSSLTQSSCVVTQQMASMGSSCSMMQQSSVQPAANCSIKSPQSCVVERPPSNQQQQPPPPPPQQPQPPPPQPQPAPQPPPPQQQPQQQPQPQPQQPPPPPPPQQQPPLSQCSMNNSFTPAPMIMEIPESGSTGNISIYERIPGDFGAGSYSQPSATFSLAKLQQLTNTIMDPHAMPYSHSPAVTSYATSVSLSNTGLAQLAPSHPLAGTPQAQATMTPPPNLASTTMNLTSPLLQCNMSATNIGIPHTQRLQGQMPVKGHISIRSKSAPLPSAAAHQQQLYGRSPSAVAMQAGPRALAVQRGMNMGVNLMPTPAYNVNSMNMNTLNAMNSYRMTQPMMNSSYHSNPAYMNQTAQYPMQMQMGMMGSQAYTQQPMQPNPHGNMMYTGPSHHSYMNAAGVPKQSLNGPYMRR

Molecular target: Histone acetyltransferase KAT6A (Homo sapiens, UniProt Q92794)
Experiment: Inhibition of his-tagged human recombinant KAT6A (194 to 810 residues) expressed in baculovirus-infected Sf9 insect cells using H4-derived peptide as substrate incubated for 40 mins in presence of AcCoA by TR-FRET assay

IC50: 99 nM
SMILES: COc1cc(OC)c2cc(C(=O)NS(=O)(=O)c3ccccc3-c3ccccc3)oc2c1
